The EC50 is the concentration giving half of the maximal effect. Lower therefore signals an effect from little substance.

Protein sequences, listed by entry. Tags and fused reporters are not part of them. Residues count along the entry.
UniProt P43220, 24-463: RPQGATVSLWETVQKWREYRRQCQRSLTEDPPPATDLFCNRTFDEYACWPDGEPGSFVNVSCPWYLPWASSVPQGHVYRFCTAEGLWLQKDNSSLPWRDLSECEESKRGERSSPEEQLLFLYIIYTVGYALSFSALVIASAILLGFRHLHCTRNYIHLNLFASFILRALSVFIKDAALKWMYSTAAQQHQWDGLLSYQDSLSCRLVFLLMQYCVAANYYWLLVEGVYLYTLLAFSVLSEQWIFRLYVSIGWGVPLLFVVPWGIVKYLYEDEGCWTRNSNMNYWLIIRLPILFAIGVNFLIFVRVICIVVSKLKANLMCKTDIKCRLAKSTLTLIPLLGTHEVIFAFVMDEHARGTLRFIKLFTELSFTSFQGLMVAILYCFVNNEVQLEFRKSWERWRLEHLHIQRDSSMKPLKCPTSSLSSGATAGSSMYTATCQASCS

The text below walks through data of US9868772B2 (INDIANA UNIVERSITY RESEARCH AND TECHNOLOGY CORPORATION, priority 2012, dated 2018).

For the test, the target named is T1, GLP-1 receptor (Homo sapiens, UniProt P43220).
T1 construct: expressed in transfected cells; host or cells: HEK293
The experiment in a line: cAMP induction, firefly luciferase reporter assay in HEK293 cells co-transfected with receptor. In kind it is cell-based. Here is the method:
The ability of glucagon analogs to induce cAMP was measured in a firefly luciferase-based reporter assay. […] At the end of the incubation 100 microliters of LucLite luminescence substrate reagent (Perkin-Elmer, Wellesley, Mass.) were added to each well. […] Effective 50% concentrations were calculated by using Origin software (OriginLab, Northampton, Mass.
A general note: A reporter such as luciferase makes a cellular process visible.

Consider `CCCCCCCCCCCCCCCC(=O)N[C@@H](CCC(=O)NCCCC[C@H](NC(=O)[C@H](CC(=O)O)NC(=O)[C@H](CO)NC(=O)[C@@H](NC(=O)[C@H](Cc1ccccc1)NC(=O)[C@@H](NC(=O)CNC(=O)[C@H](CCC(N)=O)NC(=O)[C@H](C)NC(=O)[C@H](N)Cc1cccs1)[C@@H](C)O)[C@@H](C)O)C(=O)N[C@@H](CO)C(=O)N[C@@H](CCCCN)C(=O)N[C@@H](Cc1ccc(O)cc1)C(=O)N[C@@H](CC(C)C)C(=O)N[C@@H](CC(=O)O)C(=O)N[C@@H](CCC(=O)O)C(=O)N[C@@H](CCCNC(=N)N)C(=O)N[C@@H](C)C(=O)N[C@@H](C)C(=O)N[C@@H](CCC(N)=O)C(=O)N[C@@H](CC(=O)O)C(=O)N[C@@H](Cc1ccccc1)C(=O)N[C@H](C(=O)N[C@@H](CCC(N)=O)C(=O)N[C@@H](Cc1c[nH]c2ccccc12)C(=O)N[C@@H](CC(C)C)C(=O)N[C@@H](CC(C)C)C(=O)N[C@@H](CCC(=O)O)C(=O)NCC(=O)NCC(=O)N1CCC[C@H]1C(=O)N[C@@H](CO)C(=O)N[C@@H](CO)C(=O)NCC(=O)N[C@@H](C)C(=O)N1CCC[C@H]1C(=O)N1CCC[C@H]1C(=O)N1CCC[C@H]1C(=O)N[C@@H](CO)C(N)=O)C(C)C)C(=O)O` [compound 18], for which the EC50 amounted to 8 pM.
